Measurements as given in ChEMBL document CHEMBL3992551, “Synthesis and evaluation of N-(benzofuran-5-yl)aromaticsulfonamide derivatives as novel HIF-1 inhibitors that possess anti-angiogenic potential” (Bioorg Med Chem, 2017).

Amino acid sequences for entries named in this document (tags omitted).
UniProt Q16665, whole entry, looked up: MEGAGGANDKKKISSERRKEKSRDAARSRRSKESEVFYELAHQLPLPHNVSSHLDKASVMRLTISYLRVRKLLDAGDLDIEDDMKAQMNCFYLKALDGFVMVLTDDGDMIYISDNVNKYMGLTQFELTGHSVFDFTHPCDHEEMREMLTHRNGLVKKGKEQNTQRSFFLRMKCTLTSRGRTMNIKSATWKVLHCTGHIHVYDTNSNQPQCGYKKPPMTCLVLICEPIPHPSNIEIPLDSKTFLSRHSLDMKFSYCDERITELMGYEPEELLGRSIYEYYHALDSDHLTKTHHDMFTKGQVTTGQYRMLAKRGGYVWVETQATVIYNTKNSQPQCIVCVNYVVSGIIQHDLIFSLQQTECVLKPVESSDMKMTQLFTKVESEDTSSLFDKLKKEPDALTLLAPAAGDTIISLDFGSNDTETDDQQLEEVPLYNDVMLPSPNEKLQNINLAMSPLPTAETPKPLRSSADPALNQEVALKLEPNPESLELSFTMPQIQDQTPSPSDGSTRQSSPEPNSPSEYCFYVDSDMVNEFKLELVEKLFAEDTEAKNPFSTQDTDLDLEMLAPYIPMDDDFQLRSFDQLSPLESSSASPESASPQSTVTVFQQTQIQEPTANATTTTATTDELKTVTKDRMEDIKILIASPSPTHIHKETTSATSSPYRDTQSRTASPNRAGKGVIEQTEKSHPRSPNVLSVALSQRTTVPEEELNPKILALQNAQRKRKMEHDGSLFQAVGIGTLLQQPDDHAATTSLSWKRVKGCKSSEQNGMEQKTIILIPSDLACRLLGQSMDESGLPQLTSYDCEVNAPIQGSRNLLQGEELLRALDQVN

What was measured:
MCF7 = assay: Antiproliferative activity against human MCF7 cells after 72 hrs under hypoxic condition by MTT assay
MDA-MB-231 = assay: Antiproliferative activity against human MDA-MB-231 cells after 72 hrs under hypoxic condition by MTT assay
MDA-MB-468 = assay: Antiproliferative activity against human MDA-MB-468 cells after 72 hrs under hypoxic condition by MTT assay
[1] = target: Hypoxia-inducible factor 1-alpha (Homo sapiens, UniProt Q16665); assay: Inhibition of HIF-1alpha (unknown origin) transcriptional activity expressed in human MCF7 cells after 24 hrs under hypoxic condition by HRE luciferase reporter gene assay

Question: With `N[C@@H](Cc1ccc([N+]([O-])(CCCl)CCCl)cc1)C(=O)O` as the compound, how does the IC50 (MCF7) read?
Answer: 19.7 µM

Question: And the IC50 (MDA-MB-231)?
Answer: 62.8 µM

Question: What about the IC50 (MDA-MB-468) of the same compound?
Answer: 45.1 µM

Question: What about the IC50 [1] of the same compound?
Answer: 20.2 µM
